Measurements from ChEMBL document CHEMBL4823278, “Metal binding 6-arylthio-3-hydroxypyrimidine-2,4-diones inhibited human cytomegalovirus by targeting the pUL89 endonuclease of the terminase complex” (Eur J Med Chem, 2021).

Tested on: HEL 299
Details: human, hel 299, 168 h

SMILES | CC50 [µM]
O=c1cc(Sc2cccc(-c3ccc(Cl)cc3)c2)[nH]c(=O)n1O | 28.8
Cc1cc(-c2ccc(Sc3cc(=O)n(O)c(=O)[nH]3)cc2)ccc1F | 9.4
Cn1c(Sc2ccc(C(F)(F)F)cc2)cc(=O)n(O)c1=O | 26.8
Cn1c(Sc2cccc(C(F)(F)F)c2)cc(=O)n(O)c1=O | 20.7
Cn1c(Sc2cccc3ccccc23)cc(=O)n(O)c1=O | 9
COc1cccc(Sc2cc(=O)n(O)c(=O)n2C)c1 | 15.3
Cn1c(Sc2ccc(Cl)cc2)cc(=O)n(O)c1=O | 19.4
Cn1c(Sc2ccc(Br)cc2)cc(=O)n(O)c1=O | 26.6
CCn1c(Sc2ccc(F)cc2)cc(=O)n(O)c1=O | 13.8
Cn1c(Sc2ccccc2Br)cc(=O)n(O)c1=O | 23.6

Target: T1, Tripartite terminase subunit 3 (Human betaherpesvirus 5, UniProt P16732)
T1 sequence (P16732 whole entry): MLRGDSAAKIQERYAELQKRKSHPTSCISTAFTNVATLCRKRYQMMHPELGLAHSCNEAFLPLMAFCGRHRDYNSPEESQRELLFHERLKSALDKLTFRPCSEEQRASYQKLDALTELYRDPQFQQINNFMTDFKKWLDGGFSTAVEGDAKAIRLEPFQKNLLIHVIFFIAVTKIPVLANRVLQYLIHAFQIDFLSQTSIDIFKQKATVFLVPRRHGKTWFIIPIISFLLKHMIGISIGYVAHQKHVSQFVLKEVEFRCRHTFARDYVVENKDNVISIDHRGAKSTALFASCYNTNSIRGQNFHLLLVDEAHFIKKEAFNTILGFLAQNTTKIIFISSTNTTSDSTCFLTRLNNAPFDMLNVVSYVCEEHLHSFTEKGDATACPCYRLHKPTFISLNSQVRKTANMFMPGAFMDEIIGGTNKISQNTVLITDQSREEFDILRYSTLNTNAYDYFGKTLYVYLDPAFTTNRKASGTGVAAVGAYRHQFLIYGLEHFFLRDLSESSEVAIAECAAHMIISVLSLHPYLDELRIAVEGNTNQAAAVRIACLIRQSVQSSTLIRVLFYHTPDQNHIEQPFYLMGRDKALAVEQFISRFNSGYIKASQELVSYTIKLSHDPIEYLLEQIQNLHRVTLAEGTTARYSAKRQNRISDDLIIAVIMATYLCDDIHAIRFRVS
Details: not given

SMILES | IC50 [µM]
O=C(O)c1cn(Cc2ccc(Cl)c(F)c2)cc(O)c1=O | 3.5

Tested on: not listed separately
Experiment: Cytotoxicity against human HEL 299 cells assessed as cell viability at 10 uM incubated for 168 hrs by MTS-based tetrazolium reduction assay relative to control
Details: read-out: Activity

SMILES | viability at 168 h, 10 µM [%]
Cc1cc(-c2ccc(Sc3cc(=O)n(O)c(=O)[nH]3)cc2)ccc1F | 77
